This is an account of results in patent US11498896B2 (The Broad Institute, Inc., priority 2014, dated 2022).

Protein sequences, listed by entry. Tags and fused reporters are not part of them. Lines headed by an entry give the natural chain unless they say otherwise; changes in a name come on top.
UniProt P14416, whole entry: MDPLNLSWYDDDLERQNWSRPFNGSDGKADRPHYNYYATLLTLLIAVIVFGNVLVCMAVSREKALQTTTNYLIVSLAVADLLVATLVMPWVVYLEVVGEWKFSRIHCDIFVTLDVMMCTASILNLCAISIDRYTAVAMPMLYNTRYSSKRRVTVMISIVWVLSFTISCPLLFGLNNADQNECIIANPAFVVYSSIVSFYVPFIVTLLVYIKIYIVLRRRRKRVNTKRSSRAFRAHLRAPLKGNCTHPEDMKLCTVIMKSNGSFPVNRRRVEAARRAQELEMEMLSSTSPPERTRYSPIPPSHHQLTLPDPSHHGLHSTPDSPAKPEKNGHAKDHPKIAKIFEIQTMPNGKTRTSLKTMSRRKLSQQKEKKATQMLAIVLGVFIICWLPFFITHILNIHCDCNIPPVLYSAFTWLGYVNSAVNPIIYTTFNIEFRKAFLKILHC

Like-named read-outs stand apart in the source and are kept apart here. Bounds are passed on as bounds.

Experiment [1] deals with T1, human D2R/β-arrestin (Homo sapiens (Human), UniProt P14416). Put plainly: β-arrestin agonist assay (PathHunter). Format: cell-based. Conditions: read-out: β-arrestin Agonist; CHO-K1 cells expressing human D2R/β-arrestin; agonist mode.
For experiment [2], the target named is T1, human D2R/β-arrestin. Description: Gi/cAMP agonist assay (Lance Ultra cAMP, forskolin). The note with it: read-out: cAMP Agonist; CHO-K1 cells expressing human D2R/β-arrestin; agonist mode, 2.5 μM forskolin. Format: cell-based.
Experiment [3] deals with T1, human D2R/β-arrestin. Conditions: read-out: β-arrestin Antagonist; CHO-K1 cells expressing human D2R/β-arrestin; antagonist mode, quinpirole 130 nM.
The target of experiment [4] is T1, human D2R/β-arrestin. The note with it: read-out: cAMP Antagonist; CHO-K1 cells expressing human D2R/β-arrestin; antagonist mode, 2.5 μM forskolin and 2.7 nM quinpirole.

Regarding `CC1(Oc2ccc(Cl)cc2)CCCN(CCOc2ccccc2)C1` (single isomer, unassigned), the EC50 at human D2R/β-arrestin [1] and on human D2R/β-arrestin [2] was greater than 30 µM in each case. Further, the IC50 at human D2R/β-arrestin [3] was 1 to 10 µM; on human D2R/β-arrestin [4], 0.1 to 1 µM.
For `CC1(Oc2ccc(Cl)cc2)CCCN(CCOc2ccccc2F)C1` (single isomer, unassigned), the EC50 on human D2R/β-arrestin [1] and at human D2R/β-arrestin [2] was greater than 30 µM throughout. For the same compound, the IC50 on human D2R/β-arrestin [3] fell in the range of 1 to 10 µM; on human D2R/β-arrestin [4] it was 0.1 to 1 µM.
Regarding `CC1(Oc2ccc(Cl)cc2)CCN(CCOc2ccc3ncsc3c2)C1` (single isomer, unassigned), the EC50 is greater than 30 µM at human D2R/β-arrestin [1] and less than 0.1 µM on human D2R/β-arrestin [2]. For the same compound, the IC50 was 1 to 10 µM at human D2R/β-arrestin [3] and greater than 30 µM at human D2R/β-arrestin [4].
Turning to `CC1(Oc2ccncc2)CCN(CCOc2ccccc2)C1` (single isomer, unassigned), the EC50 at human D2R/β-arrestin [1] is greater than 30 µM; on human D2R/β-arrestin [2], 0.1 to 1 µM. Moreover, the IC50 at human D2R/β-arrestin [3] was 10 to 30 µM; on human D2R/β-arrestin [4], greater than 30 µM.
Consider `FC(F)(F)c1ccccc1OCCN1CCC2(CC1)CC2c1ccccc1` (single isomer, unassigned), for which the EC50 at human D2R/β-arrestin [1] and at human D2R/β-arrestin [2] was greater than 30 µM each time. The IC50 on human D2R/β-arrestin [3] and at human D2R/β-arrestin [4] was 0.1 to 1 µM throughout.
As to `CC1(Oc2ccc(Cl)cc2)CCN(CCOc2ccccc2)C1` (single isomer, unassigned) [1a], the EC50 at human D2R/β-arrestin [1] is greater than 30 µM; on human D2R/β-arrestin [2], less than 0.1 µM. For the same compound, the IC50 at human D2R/β-arrestin [3] is 0.1 to 1 µM; at human D2R/β-arrestin [4], greater than 30 µM.
As to `CC1(Oc2ccc(Cl)cc2)CCN(CCOc2ccccc2)C1` (single isomer, unassigned) [1b], the EC50 is greater than 30 µM at human D2R/β-arrestin [1] and 0.1 to 1 µM on human D2R/β-arrestin [2]. Moreover, the values for the IC50 on human D2R/β-arrestin [3] and on human D2R/β-arrestin [4] were 1 to 10 µM and less than 0.1 µM, respectively.
Regarding `CC1(Oc2ccc(Cl)cc2)CCN(CCn2ccccc2=O)C1` (single isomer, unassigned) [7a], the EC50 at human D2R/β-arrestin [1] and at human D2R/β-arrestin [2] was greater than 30 µM in each case. In addition, the IC50 at human D2R/β-arrestin [3] and on human D2R/β-arrestin [4] was greater than 30 µM each time.
Consider `CC1(Oc2ccc(Cl)cc2)CCN(CCn2ccccc2=O)C1` (single isomer, unassigned) [7b], for which the figures for the EC50 on human D2R/β-arrestin [1] and on human D2R/β-arrestin [2] were greater than 30 µM and 1 to 10 µM, respectively. The IC50 on human D2R/β-arrestin [3] and at human D2R/β-arrestin [4] was greater than 30 µM throughout.
On to `CC1(Oc2ccc(Cl)cc2)CCN(CCOc2cccnc2)C1` (single isomer, unassigned) [12a], for which the EC50 on human D2R/β-arrestin [1] and on human D2R/β-arrestin [2] was less than 0.1 µM throughout. Besides, the values for the IC50 on human D2R/β-arrestin [3] and on human D2R/β-arrestin [4] were 0.1 to 1 µM and greater than 30 µM, respectively.
`CC1(Oc2ccc(Cl)cc2)CCN(CCOc2cccnc2)C1` (single isomer, unassigned) [12b]: the EC50 at human D2R/β-arrestin [1] and on human D2R/β-arrestin [2] was less than 0.1 µM throughout. Moreover, the IC50 on human D2R/β-arrestin [3] and on human D2R/β-arrestin [4] was greater than 30 µM in each case.
Consider `CC1(Oc2cccc(C(F)(F)F)c2)CCN(CCOc2ccccc2)C1` (single isomer, unassigned) [55a], for which the EC50 on human D2R/β-arrestin [1] and at human D2R/β-arrestin [2] was greater than 30 µM each time. Further, the IC50 at human D2R/β-arrestin [3] was in the range of 1 to 10 µM; at human D2R/β-arrestin [4] it was 0.1 to 1 µM.
As for `CC1(Oc2cccc(C(F)(F)F)c2)CCN(CCOc2ccccc2)C1` (single isomer, unassigned) [55b], the EC50 on human D2R/β-arrestin [1] was greater than 30 µM; on human D2R/β-arrestin [2], less than 0.1 µM. The IC50 on human D2R/β-arrestin [3] was 10 to 30 µM; at human D2R/β-arrestin [4] it was greater than 30 µM.
`CC1(Oc2ccc(Cl)cc2)CCCN(CCOc2ccc3scnc3c2)C1` (single isomer, unassigned) [99a]: the EC50 on human D2R/β-arrestin [1] and on human D2R/β-arrestin [2] was greater than 30 µM in each case. Also, the IC50 at human D2R/β-arrestin [3] was 1 to 10 µM; on human D2R/β-arrestin [4], 0.1 to 1 µM.
Regarding `CC1(Oc2ccc(Cl)cc2)CCCN(CCOc2ccc3scnc3c2)C1` (single isomer, unassigned) [99b], the EC50 at human D2R/β-arrestin [1] and at human D2R/β-arrestin [2] was greater than 30 µM throughout. Also, the IC50 was 10 to 30 µM at human D2R/β-arrestin [3] and 1 to 10 µM on human D2R/β-arrestin [4].
As to `CC1(C(O)c2ccccc2)CCN(CCOc2ccccc2C(F)(F)F)CC1` (single isomer, unassigned) [107a], the EC50 was greater than 30 µM at human D2R/β-arrestin [1] and less than 0.1 µM at human D2R/β-arrestin [2]. The IC50 at human D2R/β-arrestin [3] and on human D2R/β-arrestin [4] was less than 0.1 µM throughout.
Regarding `CC1(C(O)c2ccccc2)CCN(CCOc2ccccc2C(F)(F)F)CC1` (single isomer, unassigned) [107b], the values for the EC50 at human D2R/β-arrestin [1] and at human D2R/β-arrestin [2] were 0.1 to 1 µM and less than 0.1 µM, respectively. In addition, the results for the IC50 at human D2R/β-arrestin [3] and at human D2R/β-arrestin [4] were 0.1 to 1 µM and 10 to 30 µM, respectively.
For the compound `CC1(O)CCN(CC2COc3ccccc3O2)CC1` (single isomer, unassigned) [140a], the EC50 at human D2R/β-arrestin [1] is greater than 30 µM; at human D2R/β-arrestin [2], 0.1 to 1 µM. Besides, the IC50 on human D2R/β-arrestin [3] was 10 to 30 µM; on human D2R/β-arrestin [4] it was greater than 30 µM.
Take `CC1(O)CCN(CC2COc3ccccc3O2)CC1` (single isomer, unassigned) [140b]: the results for the EC50 at human D2R/β-arrestin [1] and at human D2R/β-arrestin [2] were 0.1 to 1 µM and less than 0.1 µM, respectively. Moreover, the IC50 was 0.1 to 1 µM at human D2R/β-arrestin [3] and greater than 30 µM on human D2R/β-arrestin [4].
For the compound `CC1(Oc2ccc(Cl)cc2)CCN(CC2COc3ccccc3O2)CC1` (single isomer, unassigned) [142a], the EC50 at human D2R/β-arrestin [1] and on human D2R/β-arrestin [2] was less than 0.1 µM each time. The IC50 on human D2R/β-arrestin [3] and at human D2R/β-arrestin [4] was greater than 30 µM each time.
Consider `CC1(Oc2ccc(Cl)cc2)CCN(CC2COc3ccccc3O2)CC1` (single isomer, unassigned) [142b], for which the EC50 lay within 1 to 10 µM on human D2R/β-arrestin [1] and 0.1 to 1 µM on human D2R/β-arrestin [2]. The IC50 at human D2R/β-arrestin [3] and on human D2R/β-arrestin [4] was greater than 30 µM in each case.
As for `Clc1ccc(N2CCCC23CCN(CC2COc4ccccc4O2)CC3)cc1` (single isomer, unassigned) [178a], the EC50 on human D2R/β-arrestin [1] and at human D2R/β-arrestin [2] was greater than 30 µM each time. The IC50 was 0.1 to 1 µM on human D2R/β-arrestin [3] and less than 0.1 µM at human D2R/β-arrestin [4].
Consider `Clc1ccc(N2CCCC23CCN(CC2COc4ccccc4O2)CC3)cc1` (single isomer, unassigned) [178b], for which the EC50 was greater than 30 µM at human D2R/β-arrestin [1] and 10 to 30 µM at human D2R/β-arrestin [2]. Moreover, the IC50 on human D2R/β-arrestin [3] is 0.1 to 1 µM; at human D2R/β-arrestin [4], less than 0.1 µM.
